Measurements as given in patent publication US8193384B2, “Polymer-bound phosphitylating reagents for the synthesis of organophosphorus compounds” (priority 2005, dated 2012).

Assay: Stability studies on storage (NMR / mass spectrometry)
[1] = two weeks storage at −20° C., spectroscopic methods / HR-MS
[2] = 2 months storage at −20° C., NMR and/or mass spectrometry

Substance | storage stability [1] | storage stability [2] | storage stability (10 days at room temperature in DMSO solution)
2-cyanoethyl phosphoryl-O,O-bis(2-cyanoethyl diisopropylphosphoramidite) | remained stable | – | –
O—[(O,O-bis(2-cyanoethyl)phosphoryl]-O-[2-cyanoethyl phosphorochloridite]diisopropylaminophosphoramidite | – | remained stable | remained stable
bis(2-cyanoethyl diisopropylphosphoramidite) | remained stable | – | –
diisopropylphosphoramidochloridite-O-2-cyanoethyl diisopropylphosphoramidite | – | remained stable | –
